These results are taken from patent US7465544B2, “Synthetic cofactor analogs of S-adenosylmethionine as ligatable probes of biological methylation and methods for their use” (Wisconsin Alumni Research Foundation, priority 2006, dated 2008).

Sequences of proteins named here, by UniProt entry; tags and fusion partners are left off. A change or cut given only in a name is not applied to a line headed by its entry.
UniProt P05102: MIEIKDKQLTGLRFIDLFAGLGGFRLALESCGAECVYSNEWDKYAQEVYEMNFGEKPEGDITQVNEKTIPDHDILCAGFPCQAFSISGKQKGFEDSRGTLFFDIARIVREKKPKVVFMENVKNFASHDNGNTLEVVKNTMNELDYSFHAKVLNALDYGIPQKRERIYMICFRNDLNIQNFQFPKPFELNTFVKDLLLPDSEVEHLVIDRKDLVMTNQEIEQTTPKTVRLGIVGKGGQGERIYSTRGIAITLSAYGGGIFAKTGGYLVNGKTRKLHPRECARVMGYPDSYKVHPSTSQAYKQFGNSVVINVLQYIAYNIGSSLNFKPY
UniProt P14385: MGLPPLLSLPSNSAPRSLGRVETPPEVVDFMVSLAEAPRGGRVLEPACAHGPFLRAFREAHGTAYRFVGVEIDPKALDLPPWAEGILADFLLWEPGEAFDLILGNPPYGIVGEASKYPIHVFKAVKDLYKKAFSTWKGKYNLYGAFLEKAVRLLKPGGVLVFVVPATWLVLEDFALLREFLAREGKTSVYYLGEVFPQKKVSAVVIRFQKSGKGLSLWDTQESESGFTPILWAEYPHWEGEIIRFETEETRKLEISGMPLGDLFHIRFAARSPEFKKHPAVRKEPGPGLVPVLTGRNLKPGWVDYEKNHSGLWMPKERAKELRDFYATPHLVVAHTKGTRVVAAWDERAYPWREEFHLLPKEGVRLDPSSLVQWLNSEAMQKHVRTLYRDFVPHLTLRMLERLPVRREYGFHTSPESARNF
UniProt P15840: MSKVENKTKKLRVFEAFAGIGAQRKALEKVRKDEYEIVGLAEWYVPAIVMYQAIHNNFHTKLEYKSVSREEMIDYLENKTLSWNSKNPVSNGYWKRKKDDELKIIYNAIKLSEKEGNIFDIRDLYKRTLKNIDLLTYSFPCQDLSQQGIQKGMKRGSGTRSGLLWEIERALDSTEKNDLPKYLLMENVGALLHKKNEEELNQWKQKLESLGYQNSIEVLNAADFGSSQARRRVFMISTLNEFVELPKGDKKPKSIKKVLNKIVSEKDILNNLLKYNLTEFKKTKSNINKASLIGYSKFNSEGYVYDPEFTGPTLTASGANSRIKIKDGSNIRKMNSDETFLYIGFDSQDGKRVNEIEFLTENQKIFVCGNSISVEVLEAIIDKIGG
UniProt P00472: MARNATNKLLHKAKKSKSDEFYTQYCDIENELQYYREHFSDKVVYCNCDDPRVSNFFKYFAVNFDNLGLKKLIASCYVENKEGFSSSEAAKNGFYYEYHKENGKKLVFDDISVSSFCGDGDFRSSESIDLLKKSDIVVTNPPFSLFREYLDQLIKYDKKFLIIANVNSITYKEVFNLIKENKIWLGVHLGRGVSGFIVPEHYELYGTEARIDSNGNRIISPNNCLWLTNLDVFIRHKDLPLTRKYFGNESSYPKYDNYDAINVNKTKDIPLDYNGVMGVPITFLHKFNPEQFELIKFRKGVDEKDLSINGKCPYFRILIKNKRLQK

The target of test [1] is M.HhaI (Haemophilus parahaemolyticus, UniProt P05102). The experiment in a line: M.HhaI-dependent alkylation of synthetic oligonucleotide duplex (DPAGE). Conditions: 0.5 μM duplex, 0.6 μM M.HhaI, 37° C., margin of error ±3%. Format: biochemical.
The target of test [2] is M.TaqI (Thermus aquaticus, UniProt P14385). The experiment in a line: M.TaqI-dependent alkylation of synthetic oligonucleotide duplex (DPAGE). Conditions: 0.5 μM duplex, ~1.2 μM M.TaqI, 37° C., margin of error ±3%. The test is classed as biochemical.
The target in test [3] is M.SssI (Spiroplasma monobiae, UniProt P15840). The test is described as follows: M.SssI-dependent alkylation of synthetic oligonucleotide duplex (DPAGE). Format: biochemical. Conditions: 0.5 μM duplex, 0.6 μM M.SssI, 37° C., margin of error ±3%.
Test [4] concerns the target M.EcoRI (Escherichia coli, UniProt P00472). The test is described as follows: M.EcoRI-dependent alkylation of synthetic oligonucleotide duplex (DPAGE). Conditions: 0.5 μM duplex, 0.6 μM M.EcoRI, 37° C., margin of error ±3%. The test is classed as biochemical.
Test [5] relates to duplex DNA. The experiment in a line: MTase-independent (non-specific) DNA alkylation controls. Conditions: 5 μM 67 without MTase; substrates of all four enzymes; margin of error ±3%.
The test system of test [6] is duplex 7 (duplex 5 modified with 24a by M.HhaI). The experiment in a line: Cu(I)-mediated Haber-Weiss DNA strand scission, DNA modified with M.HhaI. Conditions: after ligation and copper treatment; 20 μM CuSO4, 5.8 mM MPA, pH 8, 2 hours 37° C.
For test [7], the system named is duplex 6 (duplex 5 modified with 24a by M.TaqI). The experiment in a line: Cu(I)-mediated Haber-Weiss DNA strand scission, DNA modified with M.TaqI. Conditions: 20 μM CuSO4, 5.8 mM MPA, relative to all scission products observed.
[8] abbreviates: after ligation with OP-phosphine, pH 8, 2 hours 37° C.

SMILES strings stand for the structures. Structures can show the parent of a compound that is named as a salt. Bounds are passed on as bounds.

Take `Nc1ncnc2c1ncn2[C@@H]1O[C@H](CN(CCI)CC[C@H](N)C(=O)O)C(O)[C@@H]1O` (some centres unmarked) [compound 67, 5′-(diaminobutyric acid)-N-iodoethyl-5′-deoxyadenosine ammonium hydrochloride]: the “Percent yield of DNA alkylation” value is reported as 15% in test [1] (lane 2: 0.1 μM 67); 38% in test [1] (lane 3: 0.5 μM 67); 41% in test [1] (lane 4: 1.0 μM 67); 42% in test [1] (lane 5: 5 μM 67); 6% in test [2] (lane 2: 0.1 μM 67); 9% in test [2] (lane 3: 0.5 μM 67). In addition, the “Percent yield of DNA alkylation” value in test [2] (lane 4: 1.0 μM 67) came out at 13%; in test [2] (lane 5: 5 μM 67), 12%; in test [3] (lane 2: 0.1 μM 67), 20%; in test [3] (lane 3: 0.5 μM 67), 25%; in test [3] (lane 4: 1.0 μM 67), 25%; in test [3] (lane 5: 5 μM 67) it was 26%. Besides, the “Percent yield of DNA alkylation” value in test [4] (lane 2: 0.1 μM 67) came out at 7%; in test [4] (lane 3: 0.5 μM 67), 20%; in test [4] (lane 4: 1.0 μM 67) it was 28%; in test [4] (lane 5: 5 μM 67), 53%. Also, in test [5], the “yields of MTase-independent alkylation” value is reported as less than 1%.
With `[N-]=[N+]=Nc1nc2c(N)ncnc2n1[C@@H]1O[C@H](CN2CC2)C(O)[C@@H]1O` (some centres unmarked) [24a, 8-azido-5′-aziridino-5′-deoxyadenosine], in test [6], the “scission yield of major scission product at C” value was found to be 15%, the “scission yield of major scission product at G (first listed)” value stood at 16% and the “scission yield of major scission product at G (second listed)” value was 13%. In addition, in test [7] (T immediately 5′ of the recognition site), the “yield of major scission product at T” value is listed as 15%. Further, in test [7] (setting [8]), the “yield of major scission product at A” value was 12% and the “yield of major scission product at G” value is listed as 13%.
